We go through one sequence from patent publication US20100255020A1, “METHOD FOR INDUCING CYTOTOXIC T-CELLS, CYTOTOXIC T-CELL INDUCERS, AND PHARMACEUTICAL COMPOSITIONS AND VACCINES EMPLOYING THEM” (NEC CORPORATION, priority 2007, published 2010).

This experiment relates to peptide-loaded target cells (C1R-A24, RA24, T2). As to the kind of experiment: 51Cr release assay of PBMC killing activity against peptide-loaded target cells. Conditions: HLA-A*0201 binding peptides, T2 targets. It is filed as cell-based, human. The protocol: As a next experiment, PBMCs from patients with malignant tumors were stimulated with peptide in vitro and their cytolytic activity was examined against peptide-loaded tatrget cells by ^51Cr release assay described later.
Target cells were labeled with ^51Cr and loaded with HLA-binding peptide of interest. 5,000 or 10,000 cells/well of target cells were placed in 96-well U-bottom plate, and then, PBMCs having been stimulated twice in vitro were added thereto as a responder. Cells were incubated at 37° C. for 5 hours and ^51Cr released from the damaged cells during the incubation was measured, and % specific lysis was calculated. As target cells C1R-A24 or RA24 cells were used as a target when reactivity to HLA-A*2402 binding peptides were examined, and T2 cells were used as a target and incubation was carried out for 2 hours after addition of responder cells. Percent specific lysis was calculated as follows. % specific lysis=(test release-spontaneous release)/(total release-spontaneous release)×100.

Turning to “RMFPNAPYL (listed as Homo sapiens) [Db126, reference compound]”, the “Peptide-reactive cytolytic cells in PBMCs of patients” value is recorded as “contain cytolytic cells that recognize”.
